Laboratory results published in ChEMBL document CHEMBL5137065, “Recent Advances with KDM4 Inhibitors and Potential Applications” (J Med Chem, 2022).

Molecular target: T1, Lysine-specific demethylase 4B (Homo sapiens, UniProt O94953)
T1 sequence (O94953 whole entry): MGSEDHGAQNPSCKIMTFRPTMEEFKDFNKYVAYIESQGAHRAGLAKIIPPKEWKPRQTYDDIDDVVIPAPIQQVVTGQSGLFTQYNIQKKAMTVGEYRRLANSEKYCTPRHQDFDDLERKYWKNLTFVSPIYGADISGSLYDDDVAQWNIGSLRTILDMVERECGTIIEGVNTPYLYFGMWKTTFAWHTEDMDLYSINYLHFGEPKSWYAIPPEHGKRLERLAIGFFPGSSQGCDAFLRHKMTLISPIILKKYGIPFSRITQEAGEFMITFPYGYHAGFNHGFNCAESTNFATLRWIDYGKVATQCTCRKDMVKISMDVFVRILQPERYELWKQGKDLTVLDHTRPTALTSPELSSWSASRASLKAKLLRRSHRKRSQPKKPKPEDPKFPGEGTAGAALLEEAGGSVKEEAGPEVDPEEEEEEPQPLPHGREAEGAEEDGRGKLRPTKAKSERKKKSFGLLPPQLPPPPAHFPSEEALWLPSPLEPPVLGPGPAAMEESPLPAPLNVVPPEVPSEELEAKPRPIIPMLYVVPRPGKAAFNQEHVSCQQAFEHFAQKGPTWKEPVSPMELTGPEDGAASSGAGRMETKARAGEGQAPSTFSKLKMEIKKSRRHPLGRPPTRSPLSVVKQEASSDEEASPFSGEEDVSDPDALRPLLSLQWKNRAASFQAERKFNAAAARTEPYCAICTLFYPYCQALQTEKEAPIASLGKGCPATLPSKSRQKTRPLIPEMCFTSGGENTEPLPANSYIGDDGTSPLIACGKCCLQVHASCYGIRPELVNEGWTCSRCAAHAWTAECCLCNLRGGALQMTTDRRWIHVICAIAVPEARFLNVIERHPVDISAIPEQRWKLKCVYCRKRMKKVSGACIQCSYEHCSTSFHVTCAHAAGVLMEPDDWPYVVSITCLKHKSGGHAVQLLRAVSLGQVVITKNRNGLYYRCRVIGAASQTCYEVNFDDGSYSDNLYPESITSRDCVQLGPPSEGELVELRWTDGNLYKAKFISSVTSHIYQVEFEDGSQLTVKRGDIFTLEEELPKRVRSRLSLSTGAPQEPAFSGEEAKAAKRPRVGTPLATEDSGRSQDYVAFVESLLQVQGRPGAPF
Assay: Inhibition of KDM4B (unknown origin) measured by AlphaScreen assay

CC(C)[C@@H]1NC(=O)[C@@H](Cc2ccc(O)cc2)NC(=O)CSC[C@@H](C(N)=O)NC(=O)[C@H]([C@@H](C)O)NC(=O)[C@H](Cc2ccc(O)cc2)NC(=O)[C@H](Cc2c[nH]c3ccccc23)NC(=O)[C@H](CCCNC(=N)N)NC(=O)[C@H](Cc2c[nH]c3ccccc23)NC(=O)CNC(=O)[C@H](CO)NC(=O)[C@H](CCCNC(=N)N)NC(=O)[C@H]([C@@H](C)O)NC(=O)[C@H](CC(N)=O)NC(=O)[C@H](Cc2ccc(O)cc2)NC1=O
IC50: 33 nM
